Experimental data from ChEMBL document CHEMBL1124901 (J Med Chem, 1990).

Target: Dopamine receptor
Assay: In vitro inhibition of [3H]spiperone binding to Dopamine receptor D2 in Macaca nemestrina striatal membranes
Parameters: species or system Striatum, Membrane
Outline: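 Caudate tissue from adult Macaca nemestrina brains, homogenized in ice-cold 50 mM potassium phosphate pH 7.4, washed twice by centrifugation at 30000g and stored at -70 °C. Assay used 25-50 µg protein in 50 mM Tris-HCl, 120 mM NaCl, 5 mM CaCl2, 1 mM MgCl2, pH 7.4, with 0.2 nM [3H]spiperone for 30 min at 37 °C. Bound ligand was collected by filtration and counted by scintillation. Nonspecific binding was defined with 1 µM cis-flupenthixol. Ki was taken from competitive displacement.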

Ki: 8.7 nM
Compound: CCN1CCC[C@H]1CNC(=O)c1c(O)c(Cl)cc(Cl)c1OC [RACLOPRIDE]
